Here are results for one substance from patent EP4847612A1, “ALDOHEXOSE-2-EPIMERASE OR MUTANT THEREOF AND USE THEREOF” (dated 2026).

Experiment [1] has as its system Runella slithyformis aldohexose 2-epimerase RsAE mutant (G354Q+T355E), SEQ ID NO: 8. Briefly: Enzyme kinetics of RsAE mutant (G354Q+T355E) converting D-glucose to D-mannose (Lineweaver-Burk, HPLC). The note with it: 50 mM phosphate buffer (pH 7.8), 37°C, 60 min, glucose 10-100 g/L, 0.03 mg enzyme. On the procedure:
In a 1 mL reaction system (50 mM phosphate buffer (pH 7.8), with a substrate glucose concentration of 10 g/L, 0.15 mg of each of the enzymes prepared in Example 5 (RsAE wild type (WT), mutant (W198H), mutant (G354Q), and mutant (G354Q+T355E)) were added respectively, and the reaction was carried out at 37°C for 120 min. After the reaction, the reaction was terminated in a boiling water bath for 10 min. The catalytic solution after termination of the reaction was centrifuged at 13000 rpm for 1 min, and the supernatant was taken to prepare high performance liquid chromatography test samples, and the amount of mannose produced in the reaction system was measured. The chromatographic conditions of high performance liquid chromatography were as follows: using an Agilent 1260 high performance liquid chromatograph, equipped with a Phenomenex MARS Mca 5u 300X 7.8 mm chromatographic column, with a detector temperature 35°C, column temperature 80°C, and pure water the mobile phase; the flow rate was 0.5 mL/min, and the injection volume was 10 µL.
In a 1 mL reaction system (50 mM phosphate buffer (pH 7.8)), with substrate glucose concentrations of 10 g/L, 20 g/L, 40 g/L, 60 g/L, 80 g/L and 100 g/L, respectively, 0.03 mg of the RsAE mutant (G354Q+T355E) prepared in Example 5 was added respectively, and the reaction was carried out at 37°C for 60 min. […]

Experiment [2] deals with Runella slithyformis aldohexose 2-epimerase RsAE (Runsl_4586), wild type, SEQ ID NO: 5. Briefly: Enzyme kinetics of RsAE converting D-glucose to D-mannose (Lineweaver-Burk, HPLC). The note with it: 50 mM phosphate buffer (pH 7.8), 37°C, 60 min, glucose 10 g/L~100 g/L, 0.03 mg enzyme. How it is done:
In a 1 mL reaction system (50 mM phosphate buffer (pH 7.8)), with a test substrate (as shown in Table 1) concentration of 10 g/L, 0.03 mg of RsAE obtained in Example 1 was added, and the reaction was carried out at 37°C for 60 min. After the reaction, the reaction was terminated in a boiling water bath for 10 min. The catalytic solution after termination of the reaction was centrifuged at 13000 rpm for 1 min, and the supernatant was taken to prepare HPLC test samples. High performance liquid chromatography was used to determine the amount of mannose produced in the reaction system, and the production status is shown in Table 1. The chromatographic conditions were as follows: using an Agilent 1260 high-performance liquid chromatograph, equipped with a Phenomenex MARS Mca 5u 300X 7.8 mm column, with a detector temperature of 35°C, column temperature of 80°C, and pure water as the mobile phase; the flow rate was 0.5 ml/min, and the injection volume was 10 µl.
In a 1 mL reaction system (50 mM phosphate buffer (pH 7.8)), with a substrate glucose concentration of 10 g/L~100 g/L, 0.03 mg of RsAE obtained in Example 1 was added respectively, and the reaction was carried out at 37°C for 60 min. After the reaction, the reaction was terminated in a boiling water bath for 10 min. HPLC test sample preparation and high performance liquid chromatography conditions were the same as in Example 2. […]

Take D-glucose: the Kcat entry in experiment [1] is “about 10 s^-1”; in experiment [2], “about 5 s^-1”.
